The test addresses NMDA NR1/NR2B receptor (Homo sapiens, UniProt Q13224). Nature of the test: In vitro NMDA NR1/NR2b cell assay (FLIPR, intracellular calcium induced by glycine/glutamate). In kind it is cell-based. Background: A change in cytosolic calcium serves as a functional read-out for many receptors and channels.

Chains of the proteins cited; added tags and fusions are not shown. Residues count along the entry.
UniProt Q13224, 27-1484 limits assumed: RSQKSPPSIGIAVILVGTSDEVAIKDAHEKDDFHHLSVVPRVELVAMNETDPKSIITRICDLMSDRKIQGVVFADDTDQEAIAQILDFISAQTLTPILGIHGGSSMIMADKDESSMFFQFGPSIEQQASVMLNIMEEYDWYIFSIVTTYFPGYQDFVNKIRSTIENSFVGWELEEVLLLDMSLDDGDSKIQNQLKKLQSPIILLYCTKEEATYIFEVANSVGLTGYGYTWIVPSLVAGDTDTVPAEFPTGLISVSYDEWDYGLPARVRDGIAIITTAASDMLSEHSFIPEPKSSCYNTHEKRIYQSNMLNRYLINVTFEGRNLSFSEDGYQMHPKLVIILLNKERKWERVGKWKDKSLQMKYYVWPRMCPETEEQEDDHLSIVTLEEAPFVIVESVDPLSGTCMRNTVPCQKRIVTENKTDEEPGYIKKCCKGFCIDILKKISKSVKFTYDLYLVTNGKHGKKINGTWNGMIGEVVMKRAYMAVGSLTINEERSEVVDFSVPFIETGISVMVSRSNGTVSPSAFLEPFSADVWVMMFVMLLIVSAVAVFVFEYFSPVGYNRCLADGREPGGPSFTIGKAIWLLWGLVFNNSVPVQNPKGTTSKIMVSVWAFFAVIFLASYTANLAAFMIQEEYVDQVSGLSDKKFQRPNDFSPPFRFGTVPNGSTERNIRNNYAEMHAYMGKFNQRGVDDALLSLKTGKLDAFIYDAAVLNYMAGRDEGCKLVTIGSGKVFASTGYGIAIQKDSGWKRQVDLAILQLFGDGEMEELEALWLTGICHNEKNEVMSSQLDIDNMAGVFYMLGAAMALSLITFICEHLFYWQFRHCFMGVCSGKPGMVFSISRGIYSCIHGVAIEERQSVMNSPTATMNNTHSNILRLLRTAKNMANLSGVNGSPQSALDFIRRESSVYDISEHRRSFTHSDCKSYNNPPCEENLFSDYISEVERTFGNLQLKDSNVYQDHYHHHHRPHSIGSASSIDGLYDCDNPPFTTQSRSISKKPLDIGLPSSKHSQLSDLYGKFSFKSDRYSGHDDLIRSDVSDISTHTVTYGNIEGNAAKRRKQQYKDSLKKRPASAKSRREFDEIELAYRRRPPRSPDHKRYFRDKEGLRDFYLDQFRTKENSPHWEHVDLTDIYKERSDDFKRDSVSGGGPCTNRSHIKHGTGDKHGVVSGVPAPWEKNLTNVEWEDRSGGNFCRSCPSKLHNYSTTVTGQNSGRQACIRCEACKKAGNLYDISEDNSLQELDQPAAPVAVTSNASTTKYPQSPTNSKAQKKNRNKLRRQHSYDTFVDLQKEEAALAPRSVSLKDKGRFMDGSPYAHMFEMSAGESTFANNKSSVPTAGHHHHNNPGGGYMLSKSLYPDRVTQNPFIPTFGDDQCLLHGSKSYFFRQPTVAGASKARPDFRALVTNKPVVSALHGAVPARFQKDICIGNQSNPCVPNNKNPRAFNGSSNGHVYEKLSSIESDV

As for `O=C(Cc1cc(Cl)cc(Cl)c1)N1CCC[C@H](c2nc3cc(Cl)ccc3[nH]2)C1`, the “negative allosteric modulation of the NR2B ion channel (in words)” value (shortened to “negative allosteric modulation”) is “rather poor negative allosteric modulation of the NR2B ion channel or no activity at all”. Consider `O=C(NCc1cc(Cl)cc(Cl)c1)N1CCCC(c2nc3nc(Cl)ccc3[nH]2)C1` (stereo not shown), for which the “negative allosteric modulation” value was “rather poor negative allosteric modulation of the NR2B ion channel or no activity at all”. For `O=C(Cc1cc(Cl)cc(Cl)c1)N1CCCC(c2nc3cc(Cl)ccc3[nH]2)C1` (stereo not shown) the value was “rather poor negative allosteric modulation of the NR2B ion channel or no activity at all”; for `O=C(Cc1cc(Cl)cc(Cl)c1)N1CCCC(c2nc3cc(F)ccc3[nH]2)C1` (stereo not shown), “rather poor negative allosteric modulation of the NR2B ion channel or no activity at all”. As to `O=C(Cc1cc(Cl)cc(Cl)c1)N1CCCC(c2nc3cc(Cl)c(Cl)cc3[nH]2)C1` (stereo not shown), the “negative allosteric modulation” value was “rather poor negative allosteric modulation of the NR2B ion channel or no activity at all”. Then `O=C(Cc1cc(Cl)cc(Cl)c1)N1CCOC(c2nc3nc(Cl)ccc3[nH]2)C1` (stereo not shown), with “rather poor negative allosteric modulation of the NR2B ion channel or no activity at all”; and `O=C(Cc1cc(Cl)cc(Cl)c1)N1CCC[C@@H](c2nc3cc(Cl)ccc3[nH]2)C1`, with “rather poor negative allosteric modulation of the NR2B ion channel or no activity at all”.

The record behind these values is patent US10849907B2, “Imidazopyridine derivatives and the use thereof as medicament” (Boehringer Ingelheim International GmbH, priority 2017, dated 2020).
